Results as given in patent US20100286173A1 (priority 2008, published 2010).

Assay: Measurement of logP values by HPLC on reversed phase columns (EEC directive 79/831 Annex V.A8)
Format: physicochemical
Conditions: pH 2.7, 0.1% formic acid in water / acetonitrile gradient 10% to 95%

Compound | logp | Log p
Cc1ccc(C(=NOCc2cccc(NC(=O)CC(C)C)n2)c2nnnn2C)cc1C(F)(F)F [Example 68] | 4.01 | 
CCCCCOC(=O)Nc1cccc(CON=C(c2cc(C(F)(F)F)ccc2Cl)c2nnnn2C)n1 [Example 80] | 4.92 | 
Cc1cc(C(=NOCc2cccc(Br)n2)c2nnnn2C)ccc1F [Example 160] |  | 3.65
CCCCCC(=O)Nc1cccc(CON=C(c2ccc(OC(F)(F)F)cc2C)c2nnnn2C)n1 (single isomer, unassigned) [Example 105] | 4.65 | 
CCCCCOC(=O)Nc1cccc(CON=C(c2cccc(C(F)(F)F)c2F)c2nnnn2C)n1 [Example 25] | 4.65 | 
CCCCCC(=O)Nc1cccc(CON=C(c2ccc(Cl)c(C(F)(F)F)c2)c2nnnn2C)n1 [Example 77] | 4.67 | 
CCCCCC(=O)Nc1cccc(CON=C(c2cc(C(F)(F)F)ccc2C)c2nnnn2C)n1 [Example 31] | 4.01 | 
CCCCCOC(=O)Nc1cccc(CON=C(c2cc(C)cc(F)c2)c2nnnn2C)n1 [Example 93] | 4.65 | 
CCCCCOC(=O)Nc1cccc(CON=C(c2ccc(F)c(C)c2)c2nnnn2C)n1 [Example 94] | 4.65 | 
CC(C)CC(=O)Nc1cccc(CON=C(c2cc(F)cc(C(F)(F)F)c2)c2nnnn2C)n1 [Example 30] | 4.01 | 
Cc1cc(C(=NOCc2cccc(NC(=O)CCC3CCCCC3)n2)c2nnnn2C)ccc1F [Example 54] | 4.92 | 
CCCCCOC(=O)Nc1cccc(CON=C(c2ccc(C)c(F)c2)c2nnnn2C)n1 [Example 95] | 4.67 | 
CCCCCOC(=O)Nc1cccc(CON=C(c2ccc(C(F)(F)F)c(F)c2)c2nnnn2C)n1 [Example 76] | 4.92 | 
CCCCCC(=O)Nc1cccc(CON=C(c2ccc(C)c(C(F)(F)F)c2)c2nnnn2C)n1 [Example 50] | 4.41 | 
